Reference: PubChem BioAssay (NCI)
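1) Cells in 96-well plates. 2) Compound, 48 h, 5 concentrations. 3) Linear interpolation between surrounding doses. 4) Unreached endpoint = highest concentration. Abbreviation: GI50, concentration required for 50% inhibition of growth.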

How the values were obtained:
Assay in all cases: DTP human tumour cell line panel, 48 h; in the data active means GI50 below about 0.43 µM; inactive means the rest
EKVX NSCLC = test system: EKVX NSCLC
TK-10 renal = test system: TK-10 renal
NCI/ADR-RES ovarian = test system: NCI/ADR-RES ovarian
MOLT-4 leukemia = test system: MOLT-4 leukemia
SR leukemia = test system: SR leukemia
HOP-92 NSCLC = test system: HOP-92 NSCLC
NCI-H322M lung = test system: NCI-H322M lung
HCT-116 colon = test system: HCT-116 colon
SK-OV-3 ovarian = test system: SK-OV-3 ovarian
OVCAR-4 ovarian = test system: OVCAR-4 ovarian
NCI-H23 lung = test system: NCI-H23 lung
K-562 leukemia = test system: K-562 leukemia
SN12C renal = test system: SN12C renal
MDA-MB-435 = test system: MDA-MB-435
HCC-2998 colon = test system: HCC-2998 colon
OVCAR-3 ovarian = test system: OVCAR-3 ovarian
SF-295 CNS = test system: SF-295 CNS
786-0 renal = test system: 786-0 renal
MALME-3M melanoma = test system: MALME-3M melanoma
MDA-N = test system: MDA-N
A498 renal = test system: A498 renal
HOP-62 NSCLC = test system: HOP-62 NSCLC
SNB-75 CNS = test system: SNB-75 CNS
SK-MEL-5 melanoma = test system: SK-MEL-5 melanoma
SF-539 CNS = test system: SF-539 CNS
OVCAR-5 ovarian = test system: OVCAR-5 ovarian
SK-MEL-28 melanoma = test system: SK-MEL-28 melanoma
RPMI-8226 leukemia = test system: RPMI-8226 leukemia
NCI-H226 lung = test system: NCI-H226 lung
ACHN renal = test system: ACHN renal
CCRF-CEM leukemia = test system: CCRF-CEM leukemia
MDA-MB-231 breast = test system: MDA-MB-231 breast
SNB-19 CNS = test system: SNB-19 CNS
M14 melanoma = test system: M14 melanoma
SW-620 colon = test system: SW-620 colon
COLO 205 colon = test system: COLO 205 colon
SK-MEL-2 melanoma = test system: SK-MEL-2 melanoma
UACC-257 melanoma = test system: UACC-257 melanoma
HS 578T breast = test system: HS 578T breast
UACC-62 melanoma = test system: UACC-62 melanoma
RXF 393 renal = test system: RXF 393 renal
PC-3 prostate = test system: PC-3 prostate
CAKI-1 renal = test system: CAKI-1 renal
MCF7 breast = test system: MCF7 breast
DU-145 prostate = test system: DU-145 prostate
HCT-15 colon = test system: HCT-15 colon
NCI-H522 lung = test system: NCI-H522 lung
NCI-H460 lung = test system: NCI-H460 lung
A549 NSCLC = test system: A549 NSCLC
U251 CNS = test system: U251 CNS
HT29 colon = test system: HT29 colon
KM12 colon = test system: KM12 colon
T-47D breast = test system: T-47D breast
HL-60(TB) leukemia = test system: HL-60(TB) leukemia
LOX IMVI melanoma = test system: LOX IMVI melanoma
BT-549 breast = test system: BT-549 breast
UO-31 renal = test system: UO-31 renal
SF-268 CNS = test system: SF-268 CNS
OVCAR-8 ovarian = test system: OVCAR-8 ovarian

Measured: GI50

CN(C(=O)CSc1ccc2ccccc2c1)[C@H]1CCCC[C@H]1N1CCCC1
inactive: EKVX NSCLC 36.6 µM | TK-10 renal 21.6 µM | NCI/ADR-RES ovarian 35.4 µM | MOLT-4 leukemia 24 µM | SR leukemia 21.2 µM | HOP-92 NSCLC 28.6 µM | NCI-H322M lung 52.2 µM | HCT-116 colon 29.8 µM | SK-OV-3 ovarian 48.5 µM | OVCAR-4 ovarian 32.5 µM | NCI-H23 lung 31.9 µM | K-562 leukemia 19.2 µM | SN12C renal 34.9 µM | MDA-MB-435 = 23.4 µM | HCC-2998 colon 17.1 µM | OVCAR-3 ovarian 34 µM | SF-295 CNS 22 µM | 786-0 renal 16.7 µM | MALME-3M melanoma 15.3 µM | MDA-N 22.4 µM | A498 renal 17.5 µM | HOP-62 NSCLC 75.6 µM | SNB-75 CNS 55 µM | SK-MEL-5 melanoma 16.4 µM | SF-539 CNS 16.9 µM | OVCAR-5 ovarian 18.6 µM | SK-MEL-28 melanoma 37.4 µM | RPMI-8226 leukemia 22 µM | NCI-H226 lung 18.3 µM | ACHN renal 59.6 µM | CCRF-CEM leukemia 22.3 µM | MDA-MB-231 breast 23.6 µM | SNB-19 CNS 54.4 µM | M14 melanoma 15.5 µM | SW-620 colon 42.8 µM | COLO 205 colon 18.3 µM | SK-MEL-2 melanoma 18.8 µM | UACC-257 melanoma 18.3 µM | HS 578T breast 26.9 µM | UACC-62 melanoma 19.8 µM | RXF 393 renal 29.5 µM | PC-3 prostate 23.9 µM | CAKI-1 renal 41.2 µM | MCF7 breast 29.6 µM | DU-145 prostate > 100 µM | HCT-15 colon 31.9 µM | NCI-H522 lung 19.7 µM | NCI-H460 lung 19.6 µM | A549 NSCLC 42 µM | U251 CNS 33.6 µM | HT29 colon 14 µM | KM12 colon 37.2 µM | T-47D breast 29.9 µM | HL-60(TB) leukemia 16.8 µM | LOX IMVI melanoma 15 µM | BT-549 breast 20.5 µM | UO-31 renal 18.1 µM | SF-268 CNS 42.2 µM | OVCAR-8 ovarian 46.4 µM
